An excerpt weighted towards active compounds, which were near 2.8% of everything screened.
MITF act = activators of MITF-driven TRPM1 promoter activity in SK-MEL-5 cells. SK-MEL-5 TRPM1-promoter luciferase, 24 h; % of positive control, neutral wells = 0. activation, % at 12.5 µM. 300,000 tested, 0.75% active. AID 588334;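 active = mean activation of at least 80% with every replicate also reaching 80%; inconclusive = mean reaches 80% but some replicate falls short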;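 note: 0% = neutral control wells and 100% = parthenolide positive control wells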
PglD DTNB = inhibitors of Campylobacter jejuni PglD acetyltransferase; purified PglD enzyme, DTNB colorimetric CoA detection; inhibition, % at 12.5 µM; 360,000 tested, 0.098% active; AID 602405; in the data active = inhibition above about 16%, passing the limit was not always enough; inconclusive = no clear call, values can overlap the other calls
esBAF inh = SWI/SNF esBAF complex inhibition. AID 602393. mouse ES cells, Bmi1-luciferase knock-in reporter, 24 h; 100% = twice the neutral-well signal. reporter increase, % at 12.5 µM. 350,000 tested, 2% active; in the data active = activation above about 40%; inconclusive = no clear call, values can overlap the other calls;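 note: 0% = median of the plate's neutral control wells and 100% = double that signal; a rise in the Bmi1 reporter signal indicates esBAF inhibition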
UUG fidelity = yeast start codon fidelity modulation. S. cerevisiae UUG-firefly luciferase reporter, luminescence/redox ratio. activity score, % at 18.7 µM. 0.13% of 350,000 active;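 active means replicate mean at a twofold rise or more, about +100% in these data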;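 further: firefly luciferase made from a UUG start codon reports start codon fidelity; reporter light over untreated wells divided by growth signal over untreated wells; some hits fall short of that in this replicate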
Wnt bcat act = activators of Wnt/beta-catenin signaling; Wnt/beta-catenin reporter cell assay, activator, plate reader; activation, % at 9.35 µM; 300,000 tested, 1.2% active; AID 743398; in the data active = activation above about 30%, passing the limit was not always enough; inconclusive = no clear call, values can overlap the other calls;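 note: 0% = neutral control wells and 100% = positive control wells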
miR-122 sensor = miR-122 inhibition in Huh7 cells. Huh7 miR-122 Renilla luciferase sensor, 48 h; neutral wells = 0, positive control = 100. activation (reporter increase), % at 12.5 µM. 340,000 tested, 0.3% active. AID 602342;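 active = mean replicate activation score at least 90 and every replicate individually at or above 90; inconclusive = only one of the two criteria met; inactive = neither criterion met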;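 note: higher luciferase means less miR-122 activity so hits act as miR-122 inhibitors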
Ring1 derepress = de-represses Ring1 in mouse ESCs, confirming esBAF inhibition; shares compounds with esBAF inh; mouse ESC E14, Ring1 mRNA RT-qPCR fold change; fold change at 33 µM; 550 tested, under 10 active; AID 743176;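 active = Ring1 gene expression raised more than 2-fold over untreated cells in both replicates at either tested dose; inconclusive = only one replicate above 2-fold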;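 note: Ring1 transcript normalised to actin housekeeping signal by TaqMan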
Fgf4 repress = esBAF inhibition confirmed by Fgf4 repression | 550 tested, 4% active | mouse ESC E14, Fgf4 mRNA qPCR fold change; active compounds read low | shares compounds with esBAF inh | Fgf4 expression fold change at 33 µM | AID 743177;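 active = Fgf4 expression under 0.8 fold of control in both repeat measurements at one or both tested doses; inconclusive = under 0.8 fold in just a single repeat measurement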;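 note: Fgf4 transcript normalised to actin in duplex TaqMan qPCR; cells exposed to compound for 24 h before lysis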
Bmi1 derepress = esBAF inhibition confirmed by Bmi1 de-repression | shares compounds with esBAF inh | mouse ESE14 ES cells, Bmi1 mRNA qPCR fold; active compounds read high | fold change at 33 µM | 550 tested, under 10 active | AID 743180;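 active = Bmi1 expression fold change above 6 at either tested concentration, seen in replicate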;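 note: higher fold means more Bmi1 de-repression and stronger esBAF inhibition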
A549 tox SP = A549 cell cytotoxicity; shares compounds with esBAF inh; 550 tested, under 10 active; cell viability change % (negative = cytotoxic), % at 25 µM, hits read low; plate reader; call rule not given here
HepG2 tox SP = kills or reduces viability of HepG2 cells; shares compounds with esBAF inh; HepG2 cytotoxicity, plate reader; active compounds read low; activity change, negative = inhibition, % at 25 µM; 550 tested, 4% active; AID 743189; in the data active = activity change below about -50%
HEK293 cytotox SP = kills or reduces viability of HEK293 cells. activity change, negative = inhibition, % at 25 µM, hits read low. 550 tested, 3% active. shares compounds with esBAF inh. AID 743190. HEK293 cytotoxicity, plate reader; in the data active = activity change below about -38%, passing the limit was not always enough
Active calls of the source: *; ? = inconclusive; . = not tested or not shown; [ ] = remark or other dose.

#1 Cc1ccc(NC(=O)NC2CCCCCCC2)cc1C
#2 CC(=O)c1cccc(NC(=O)NC2CCCCC2)c1
#3 c1ccc(CCNc2ccc3c(c2)Cc2ccccc2-3)nc1
#4 c1ccc(CCNc2ccccn2)nc1
#5 O=C(NC1CCCCC1)c1cc(-c2ccco2)on1
#6 O=C(NC1CCCC1)c1cc(-c2ccccc2O)on1
#7 COc1ccc(-c2cc(C(=O)NC3CCCC3)no2)cc1
#8 COc1cccc(-c2cc(C(=O)NC3CCCCC3)no2)c1
#9 O=C(NC1CCCCC1)c1cc(-c2cccc(Cl)c2)on1
#10 C[C@@H]1CCCCO[C@@H](CN(C)C)[C@H](C)CN([C@H](C)CO)C(=O)c2cc(NC(=O)Nc3ccc(F)cc3)ccc2O1

| entry no. | 1 | 2 | 3 | 4 | 5 | 6 | 7 | 8 | 9 | 10 |
| --- | --- | --- | --- | --- | --- | --- | --- | --- | --- | --- |
| MITF act | 63 | 27 | 51 | 45 | 24 | 106* | 67 | 115* | 95* | . |
| PglD DTNB | 1 | -4 | 4 | . | -4 | -1 | 5 | -3 | -2 | 2 |
| esBAF inh | 61* | 22 | 82* | . | 5 | 61* | 7 | 59* | 60* | 2 |
| UUG fidelity | -22 | 2 | -10 | . | -8 | -8 | -11 | -1 | -12 | 16 |
| Wnt bcat act | 20 | 1 | 5 | 7 | 26 | 2 | 18 | 4 | 17 | . |
| miR-122 sensor | 2 | 73 | . | . | . | -4 | -2 | -2 | -8 | -5[16.7 µM] |
| Ring1 derepress | 1.5 | . | 1.2 | . | . | 1.3 | . | 1.2 | 1.2 | . |
| Fgf4 repress | 0.94 | . | ? | . | . | 0.8 | . | 0.88 | ? | . |
| Bmi1 derepress | 1.6 | . | 1.5 | . | . | 1.4 | . | 1.4 | 1.8 | . |
| A549 tox SP | 10 | . | -22 | . | . | -13 | . | -4 | -10 | . |
| HepG2 tox SP | 4 | . | 2 | . | . | 9 | . | -18 | -8 | . |
| HEK293 cytotox SP | 1 | . | -41 | . | . | -6 | . | -6 | -4 | . |

#11 Cc1noc(C)c1NC(=O)Nc1ccc2c(c1)CC(=O)N([C@@H](C)CO)C[C@@H](C)[C@H](CN(C)S(=O)(=O)c1cn(C)cn1)O2
#12 COc1ccc2c(c1)nc(-c1cccc(Br)c1)c(=O)n2C(c1ccccn1)c1nc2ccccc2[nH]1 (centres undefined)
#13 Cc1ccc(Nc2nc(-c3cccnc3)cs2)cc1Cl
#14 c1cncc(Nc2nc(-c3cccnc3)cs2)c1
#15 O=C(O)c1ccc(Nc2nc(-c3ccccc3)cs2)cc1
#16 N#Cc1ccc(Nc2nc(-c3ccccc3)cs2)cc1
#17 CC(C)c1ccc(NC(=O)c2cccnc2)cc1
#18 C[C@@H]1CN([C@H](C)CO)C(=O)c2cc(NC(=O)Nc3ccc(F)cc3)ccc2O[C@@H](C)CCCCO[C@@H]1CN(C)C(=O)c1ccccc1
#19 O=C(Nc1ccccc1Cl)c1ccc(C(=O)Nc2ccccc2Cl)cc1
#20 O=C(Nc1cccc(Cl)c1Cl)c1ccc(-c2ccccc2)cc1

| entry no. | 11 | 12 | 13 | 14 | 15 | 16 | 17 | 18 | 19 | 20 |
| --- | --- | --- | --- | --- | --- | --- | --- | --- | --- | --- |
| MITF act | . | . | . | 22 | 55 | . | 91* | . | -6 | 17 |
| PglD DTNB | -1 | -1 | -3 | . | . | 0 | 4 | 8 | . | . |
| esBAF inh | 3 | 72* | 63* | . | . | 74* | 85* | 0 | . | 74* |
| UUG fidelity | -13 | -21 | -19 | . | . | -1 | -20 | 1 | . | . |
| Wnt bcat act | . | 0 | -1 | . | . | 26 | . | . | -2 | . |
| miR-122 sensor | -1[16.7 µM] | 6 | 3 | 0 | . | 46 | 1 | 1[16.7 µM] | . | 13 |
| Ring1 derepress | . | 1.4 | 1.1 | . | . | 1.6 | 1.1 | . | . | 1.1 |
| Fgf4 repress | . | 1.1 | 0.74* | . | . | 0.81 | 0.81 | . | . | 0.95 |
| Bmi1 derepress | . | 2 | 1.7 | . | . | 2.4 | 1.6 | . | . | 1.7 |
| A549 tox SP | . | 1 | -7 | . | . | 7 | -1 | . | . | 3 |
| HepG2 tox SP | . | -17 | -2 | . | . | -10 | -27 | . | . | 19 |
| HEK293 cytotox SP | . | 6 | -5 | . | . | -9 | 5 | . | . | 10 |

#21 CN1C(=O)c2cc(NC(=O)c3cccc(C(F)(F)F)c3)ccc2OC[C@H]2O[C@@H](CC(=O)NCCN3CCCC3)CC[C@H]21
#22 C[C@@H]1CN([C@@H](C)CO)C(=O)Cc2cc(NC(=O)C3CC3)ccc2O[C@@H]1CN(C)C(=O)Nc1cccc2ccccc12
#23 COc1ccc(S(=O)(=O)Nc2cc(C(=O)NC3CCCCCC3)ccc2N2CCOCC2)cc1
#24 Fc1cccc(-c2ncc(-c3ccccc3)o2)c1
#25 CN(C)c1ccc(C=NN2CCCCCC2)cc1
#26 CN1CCN(/N=C/c2ccc(N(C)c3ccccc3)cc2)CC1
#27 COc1cc(C2Nc3cc(Cl)c(S(N)(=O)=O)cc3S(=O)(=O)N2)cc(OC)c1OC (centres undefined)
#28 COc1cc(C2Nc3cc(Cl)c(S(N)(=O)=O)cc3S(=O)(=O)N2)ccc1OCc1ccccc1 (centres undefined)
#29 CC1CCc2sc(C(=O)NC3CCCCC3)cc2C1 (centres undefined)
#30 CC1CCc2sc(C(=O)NC(C)C3CCCO3)cc2C1 (centres undefined)

| entry no. | 21 | 22 | 23 | 24 | 25 | 26 | 27 | 28 | 29 | 30 |
| --- | --- | --- | --- | --- | --- | --- | --- | --- | --- | --- |
| MITF act | . | . | 48 | 49 | 56 | -1 | -8 | 46 | . | 30 |
| PglD DTNB | 3 | 1 | -4 | 1 | 1 | . | . | -3 | 2 | 1 |
| esBAF inh | 1 | -3 | 38 | 73* | 75* | -4 | -1 | ? | 75* | . |
| UUG fidelity | 3 | -5 | -20 | -12 | -12 | -8 | . | -4 | -13 | 0 |
| Wnt bcat act | . | . | . | 42* | -3 | -1 | . | -3 | 54* | 2 |
| miR-122 sensor | 2[16.7 µM] | 2[16.7 µM] | -7 | 3 | -5 | 1 | -2 | -4 | 13 | 1 |
| Ring1 derepress | . | . | 1.1 | 1.2 | 1.2 | . | . | 0.95 | 1.3 | . |
| Fgf4 repress | . | . | 1 | 0.99 | 0.87 | . | . | 1 | 0.93 | . |
| Bmi1 derepress | . | . | 1.9 | 1.7 | 1.3 | . | . | 1.5 | 1.4 | . |
| A549 tox SP | . | . | 4 | -6 | -6 | . | . | 1 | -6 | . |
| HepG2 tox SP | . | . | -46 | 2 | -5 | . | . | -51* | -17 | . |
| HEK293 cytotox SP | . | . | -5 | -17 | -4 | . | . | -3 | -9 | . |

Of the compounds above, these contain two or more sulfur atoms.
#27 COc1cc(C2Nc3cc(Cl)c(S(N)(=O)=O)cc3S(=O)(=O)N2)cc(OC)c1OC (centres undefined)
#28 COc1cc(C2Nc3cc(Cl)c(S(N)(=O)=O)cc3S(=O)(=O)N2)ccc1OCc1ccccc1 (centres undefined)

| entry no. | 27 | 28 |
| --- | --- | --- |
| MITF act | -8 | 46 |
| PglD DTNB | . | -3 |
| esBAF inh | -1 | ? |
| UUG fidelity | . | -4 |
| Wnt bcat act | . | -3 |
| miR-122 sensor | -2 | -4 |
| Ring1 derepress | . | 0.95 |
| Fgf4 repress | . | 1 |
| Bmi1 derepress | . | 1.5 |
| A549 tox SP | . | 1 |
| HepG2 tox SP | . | -51* |
| HEK293 cytotox SP | . | -3 |

Next structures
#31 CN(Cc1cccnc1)C(=O)c1cc(COc2ccc3c(c2)CCCC3)on1
#32 C[C@H]1CN([C@@H](C)CO)C(=O)c2cccc(NS(=O)(=O)c3cn(C)cn3)c2O[C@@H]1CN(C)C
#33 O=C(c1ccccc1)c1ccc2ccccc2c1
#34 Cc1cc(C)c2c(CN(C)Cc3ccccc3)cc(=O)oc2c1
#35 COc1ccccc1C(=O)Nc1sc2c(c1C#N)CCC2
#36 COc1ccccc1C(=O)Nc1sc2c(c1C(N)=O)CCCC2

| entry no. | 31 | 32 | 33 | 34 | 35 | 36 |
| --- | --- | --- | --- | --- | --- | --- |
| MITF act | 66 | . | 61 | . | 14 | 29 |
| PglD DTNB | 0 | -3 | -2 | 7 | 1 | -1 |
| esBAF inh | 86* | 4 | 75* | 63* | 59* | 29 |
| UUG fidelity | -20 | -5 | -9 | -1 | 5 | -18 |
| Wnt bcat act | 23 | . | 5 | 12 | . | 1 |
| miR-122 sensor | -11 | 4[16.7 µM] | . | -2 | 1 | 1 |
| Ring1 derepress | 1.3 | . | 1.1 | 1.2 | 0.9 | . |
| Fgf4 repress | 0.95 | . | 0.85 | ? | 0.81 | . |
| Bmi1 derepress | 1.6 | . | 1.6 | 1.5 | 1.6 | . |
| A549 tox SP | 1 | . | -5 | -11 | 1 | . |
| HepG2 tox SP | -5 | . | -2 | -7 | -28 | . |
| HEK293 cytotox SP | -41 | . | -11 | -53* | -10 | . |
